Earlier results on one compound are cited in US10172953B2, “XTEN conjugate compositions and methods of making same” (Amunix Operating Inc., priority 2012, dated 2019).

For the series the following is noted: unmodified peptide/protein (Fxa: plasma half-life); cited from earlier work.

Take `CC[C@H](C)[C@H](NC(=O)[C@@H]1CCCN1C(=O)CNC(=O)[C@H](Cc1ccccc1)NC(=O)[C@H](CC(N)=O)NC(=O)[C@H](CC(N)=O)NC(=O)[C@H](CO)NC(=O)[C@H](CO)NC(=O)[C@H](Cc1c[nH]cn1)NC(=O)[C@@H](NC(=O)[C@H](CC(C)C)NC(=O)[C@H](Cc1ccccc1)NC(=O)[C@H](CC(N)=O)NC(=O)[C@H](C)NC(=O)[C@H](CC(C)C)NC(=O)[C@H](CCCNC(=N)N)NC(=O)[C@H](CCC(N)=O)NC(=O)[C@@H](NC(=O)[C@H](C)NC(=O)[C@@H]1CSSC[C@H](NC(=O)[C@@H](N)CCCCN)C(=O)N[C@@H](CC(N)=O)C(=O)N[C@@H]([C@@H](C)O)C(=O)N[C@@H](C)C(=O)N[C@@H]([C@@H](C)O)C(=O)N1)[C@@H](C)O)C(C)C)C(=O)N[C@@H](CC(C)C)C(=O)N1CCC[C@H]1C(=O)N1CCC[C@H]1C(=O)N[C@H](C(=O)N[C@@H](CC(N)=O)C(=O)N[C@H](C(=O)NCC(=O)N[C@@H](CO)C(=O)N[C@@H](CC(N)=O)C(=O)N[C@H](C(=O)N[C@@H](Cc1ccc(O)cc1)C(N)=O)[C@@H](C)O)C(C)C)[C@@H](C)O` [pramlintide, reference compound]: the half-life is 20 min.

A word on the half-life: it is the time needed for the level to fall by half in the phase considered.
